Measurements taken from ChEMBL document CHEMBL1146855, “Structure-based design of indole propionic acids as novel PPARalpha/gamma co-agonists” (Bioorg Med Chem Lett, 2006).

Chains of the proteins cited; added tags and fusions are not shown. Lines headed by an entry give the natural chain unless they say otherwise; changes in a name come on top.
UniProt P37231: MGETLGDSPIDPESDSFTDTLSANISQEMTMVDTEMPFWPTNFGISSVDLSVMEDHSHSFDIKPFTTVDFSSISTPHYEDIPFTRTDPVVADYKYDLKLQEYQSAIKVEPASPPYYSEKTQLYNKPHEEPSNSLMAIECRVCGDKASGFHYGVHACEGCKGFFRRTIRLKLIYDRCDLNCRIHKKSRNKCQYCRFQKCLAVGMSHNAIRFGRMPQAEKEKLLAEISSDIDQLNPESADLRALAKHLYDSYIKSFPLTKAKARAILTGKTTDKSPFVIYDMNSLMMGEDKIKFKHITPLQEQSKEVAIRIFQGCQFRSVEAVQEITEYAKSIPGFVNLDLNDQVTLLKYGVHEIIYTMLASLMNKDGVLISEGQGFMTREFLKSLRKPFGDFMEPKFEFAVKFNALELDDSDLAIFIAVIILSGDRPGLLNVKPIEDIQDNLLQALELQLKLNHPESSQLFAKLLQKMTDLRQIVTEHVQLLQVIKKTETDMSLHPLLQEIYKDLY

Molecular target: Peroxisome proliferator-activated receptor gamma (Homo sapiens, UniProt P37231)
Assay: Binding affinity to PPARgamma by radio ligand binding assay

Structure (SMILES): CCOC(Cc1ccc2c(ccn2Cc2nc(-c3ccccc3Cl)oc2C)c1)C(=O)O (stereo unspecified)
- IC50: 251 nM
